Results published in PubChem BioAssay AID1259422 (The Scripps Research Institute Molecular Screening Center, 2018).
This is a selection; strong and weak results do not stand in their true shares. Some results for these compounds are left out of this collection, so the calls shown say nothing about other tests. Activity calls are given as the source filed them. No stated cut-off is given here; in the data, active means inhibition above about 32%; inactive means the rest.

experiment: TEAD-YAP interaction inhibition, primary screen, TEAD-YAP interaction inhibitor project, luminescence, HEK-TIYL cells (AID 1259422); conditions: TEAD-Gal4/YAP UAS-luciferase luminescence, at 9.12 µM, hits give high values;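 further: 0% = median of test compound wells and 100% = reference inhibitor wells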

| Structure (SMILES) | inhibition |
| --- | --- |
| O=C(c1ccco1)N(Cc1ccco1)C1CCN(CCc2cccs2)CC1 | inactive: 3.02% |
| CC(=O)N(Cc1cccnc1)C1CCN(CCc2cccs2)CC1 | inactive: -3.58% |
